According to article PMC7262777 (Journal of medicinal chemistry, 2020):

Test system: D3R-expressing dopaminergic neurons derived from human iPSCs
Assay: MTT cell viability, protection from 6-OHDA-induced cell death
Details: 24 h pretreatment, 30 μM 6-OHDA 24 h

SMILES: COc1ccc(OCCN2CCN(C(=O)c3cc4ccccc4[nH]3)CC2)cc1 [Compound 20, (1H-Indol-2-yl)(4-(2-(4-methoxyphenoxy)ethyl)piperazin-1-yl)methanone]
- concentration giving maximal reduction in 6-OHDA-induced cell death: 500 nM
- concentration giving significant reduction in 6-OHDA-induced cell death: 50 nM
